Values quoted from earlier work as cited in patent US20210213132A1, “FORMULATIONS OF SN-38 WITH POLY(AMINO ACID) BLOCK POLYMERS” (Tyndall Formulation Services, LLC, priority 2020, published 2021).

System: carboxylesterases, specifically CES1 and CES2
Details: estimated; Rivory et al. 1996

Which “Fraction of the prodrug hydrolyzed to SN-38” value does the source give for `CCc1c2c(nc3ccc(OC(=O)N4CCC(N5CCCCC5)CC4)cc13)-c1cc3c(c(=O)n1C2)COC(=O)[C@]3(O)CC` [Irinotecan] here?
Its value is “less than 10%”.
